Amino acid sequences for entries named in this document (tags omitted).
UniProt P30542, whole entry: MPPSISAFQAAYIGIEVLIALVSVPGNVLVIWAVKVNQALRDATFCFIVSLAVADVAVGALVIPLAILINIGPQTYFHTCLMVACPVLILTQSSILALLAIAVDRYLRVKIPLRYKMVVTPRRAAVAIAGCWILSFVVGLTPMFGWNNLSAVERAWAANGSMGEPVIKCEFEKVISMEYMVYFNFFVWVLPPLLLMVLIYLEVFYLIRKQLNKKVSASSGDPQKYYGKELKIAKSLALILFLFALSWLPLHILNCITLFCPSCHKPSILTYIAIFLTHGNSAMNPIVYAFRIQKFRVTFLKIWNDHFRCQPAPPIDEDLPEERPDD

In ChEMBL document CHEMBL2021853, “Discovery of 1,2,4-triazine derivatives as adenosine A(2A) antagonists using structure based drug design” (J Med Chem, 2012):

Columns and labels:
Adenosine receptor A2a = Adenosine receptor A2a (Homo sapiens, UniProt P29274); assay: biochemical
Adenosine receptor A2b = target: T1, Adenosine receptor A2b (Homo sapiens, UniProt P29275); assay: Inhibition of adenosine A2B receptor
T1 sequence (P29275 whole entry): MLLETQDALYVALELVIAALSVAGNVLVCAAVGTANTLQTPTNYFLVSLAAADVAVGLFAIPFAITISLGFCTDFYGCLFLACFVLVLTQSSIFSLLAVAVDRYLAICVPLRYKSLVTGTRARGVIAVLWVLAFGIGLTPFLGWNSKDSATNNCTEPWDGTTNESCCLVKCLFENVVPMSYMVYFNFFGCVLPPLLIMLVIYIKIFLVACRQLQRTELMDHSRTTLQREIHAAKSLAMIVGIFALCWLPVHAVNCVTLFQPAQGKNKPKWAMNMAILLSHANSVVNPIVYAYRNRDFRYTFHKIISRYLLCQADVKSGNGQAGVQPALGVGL

Liver microsomes = conditions: rat, 1 µM
Plasma = conditions: rat, 6 h, 10 µM
[1] = AUC (infinity) in rat at 2 mg/kg, po; format: ADME, organism-based; design: time infinity, dose 2 mg/kg, route oral; conditions: plasma
Adenosine receptor A1 = Adenosine receptor A1 (Homo sapiens, UniProt P30542); assay: biochemical

## Nc1nnc(-c2ccccc2)c(-c2ccccc2)n1
Adenosine receptor A2a
  Ki: 117 nM

## Cc1cc(-c2nnc(N)nc2-c2ccccc2)cc(C)c1O
Adenosine receptor A2a
  Ki: 4.07 nM

## Nc1nnc(-c2cc(Cl)cc(Cl)c2)c(-c2ccccc2)n1
Adenosine receptor A2b
  Ki: 39.8 nM

## Cc1cc(-c2nnc(N)nc2-c2ccc(F)cc2)cc(C)n1
Liver microsomes
  t1/2: 1.67 h
Plasma
  PPB: 69%

## Cc1cc(-c2nnc(N)nc2-c2cccc(F)c2)cc(C)n1
Adenosine receptor A2a
  Ki: 10.5 nM

## Cc1cc(-c2nnc(N)nc2-c2ccccc2)cc(C(F)(F)F)n1
[1]
  AUC(0-inf): 846 ng·h/mL
Adenosine receptor A2a
  Ki: 3.47 nM
Adenosine receptor A1
  Ki: 31.6 nM
